Measurements taken from patent US20220079876A1, “OCULAR IMPLANT CONTAINING A TYROSINE KINASE INHIBITOR” (Ocular Therapeutix, Inc., priority 2020, published 2022).

Columns and labels:
[1] = rabbit, 1 month
[2] = mice, uveal tract of the eye (INLYTA support, NDA202324); cited from earlier work
[3] = 600 μg axitinib bolus, scale 0-5, mean (SD)
[4] = intravitreal bolus of 600 μg axitinib suspension

For `CNC(=O)c1ccccc1Sc1ccc2c(/C=C/c3ccccn3)n[nH]c2c1` [axitinib, N-methyl-2-[3-((E)-2-pyridin-2-yl-vinyl)-1H-indazol-6-ylsulfanyl]-benzamide], the “Chronic Subcorneal Inflammation, histopathology score” value [1, 3] was 0.28 (0.38), the “Fibrosis Around the Article, histopathology score” value [1, 3] was 0.00 (0.00) and the “Retinal Disruption, histopathology score” value [1, 3] was 0.10 (0.11). For the same compound, the “Retinal Vacuolization, histopathology score” value [1, 3] was 0.50 (0.46), the “Retinal, Scleral, or Episcleral Inflammation, histopathology score” value [1, 3] was 0.03 (0.05) and the “Vitreous Chamber Inflammation, histopathology score” value [1, 3] was 0.23 (0.21). For the same compound, the “IOP, determined weekly” value ([1]; intravitreal bilateral bolus of 600 μg axitinib suspension in ProVisc) was “remained within the normal range”, the “Eyes with minimal retinal disruption with a few macrophages in the photoreceptor layer” value [1, 4] was 1 of 6 and the “Eyes with minimal retinal vacuolization” value [1, 4] was 4 of 6. For the same compound, the “Eyes with minimal to mild chronic subcorneal inflammation” value [1, 4] was 4 of 6, the Gross lesions [1, 4] was “No gross lesions” and the “Inflammation around the axitinib injection site” value [1, 4] was “Minimal histiocytic and multinucleated giant cell inflammation”. The “Mild focal retinal disruptions in proximity to the puncture location” value [1, 4] was “two eyes” and the Melanin binding [2] was “bind to melanin in the uveal tract of the eye”.
